US20080200479A1, “Ocaperidone Salts and Pharmaceutical Compositions Containing the Same” (priority 2005, published 2008)

Experiment: Solubility of ocaperidone salts and free base in water
Details: ocaperidone salt solubility study in water; ratio to free base
Description: In particular, the solubilities of ocaperidone salts were measured as follows:
UV/visible spectrophotometer: Agilent 8453E
Volumetric flask (5 ml, 10 ml, 20 ml, 100 ml) Mechanical pipettes: Biohit (m1000, m200)
Magnetic stirrer: Heidolph MR3001K
A suspension of 100 mg of crystalline ocaperidone salt or ocaperidone free base in 1 ml HPLC grade pure water (pH=6) was prepared. The suspension was kept at fixed and controlled temperature (ex: 25° C.) under magnetic stirring for 24 hours. A sample was taken, filtered and the solubility of the ocaperidone salts or ocaperidone free base was measured after 1 h and 24 h. Results are given in g/100 ml.

Ocaperidone Succinic Acid Salt [Example 1]
times more soluble than the ocaperidone free base form: ~357 times
